Laboratory results from US12697313B2, “Methods of treating anemia using formoterol or a pharmaceutically acceptable salt thereof” (Dana-Farber Cancer Institute, Inc., priority 2022, dated 2026).

Assays:
naive wild-type mice = test: FF in naive wild-type mice without PHZ stress (FIG. 62 setup); type: in vivo; settings: 0.1/0.3/0.5 mg/kg; FIG. 69
wild-type mice = test: FF oral gavage in wild-type mice at steady-state; type: in vivo; settings: 0.1/0.5/1.0 mg/kg o.g.; FIG. 52
β2-AR = β2-AR (Mus musculus, UniProt P18762); settings: ADRB2-depleted mice (Cameron et al. 2017); cited from earlier work
[1] = system: phenylhydrazine (PHZ)-treated mice; test: FF oral gavage in PHZ-treated mice at sub-lethal dose of 60 mg/kg; type: in vivo; settings: 0.1/0.3/0.5/1.0 mg/kg o.g.; FIG. 61
[2] = system: phenylhydrazine (PHZ)-treated mice; test: FF/Arf i.p. in PHZ-treated mice at sub-lethal dose of 60 mg/kg; type: in vivo; settings: 0.3 mg/kg i.p.; FIG. 38

(E)-but-2-enedioic acid;N-[2-hydroxy-5-[(1R)-1-hydroxy-2-[[(2R)-1-(4-methoxyphenyl)propan-2-yl]amino]ethyl]phenyl]formamide
RI, RII, RIII and RIV erythroid progenitors in BM (naive wild-type mice): substantially increases
RI, RII, RIII and RIV erythroid progenitors in BM (wild-type mice): substantially increases RI, RII, RIII and RIV erythroid progenitors
specificity for β2-AR (β2-AR): highly specific for β2-AR
RI, RII, RIII and RIV erythroid progenitors in BM [1]: substantially increases RI, RII, RIII and RIV erythroid progenitors
RI, RII, RIII and RIV erythroid progenitors in BM [2]: consistently enhance erythroid progenitors
